Reference: US9868767B2, “Chemical synthesis and screening of bicyclic peptide libraries” (OHIO STATE INNOVATION FOUNDATION, priority 2013, dated 2018)
Entries after “also recorded” stand apart in the source; their conditions may differ. Where two headings read alike, the source gives them in different places.

By UniProt entry, the sequences of proteins in these tests, tags left out. Residues count along the entry.
UniProt P01375, 77-233: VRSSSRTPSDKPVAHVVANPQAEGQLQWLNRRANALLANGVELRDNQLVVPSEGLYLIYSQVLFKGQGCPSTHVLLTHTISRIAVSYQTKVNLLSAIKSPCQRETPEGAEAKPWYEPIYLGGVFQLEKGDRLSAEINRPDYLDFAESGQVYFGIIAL
UniProt P02769, 25-607: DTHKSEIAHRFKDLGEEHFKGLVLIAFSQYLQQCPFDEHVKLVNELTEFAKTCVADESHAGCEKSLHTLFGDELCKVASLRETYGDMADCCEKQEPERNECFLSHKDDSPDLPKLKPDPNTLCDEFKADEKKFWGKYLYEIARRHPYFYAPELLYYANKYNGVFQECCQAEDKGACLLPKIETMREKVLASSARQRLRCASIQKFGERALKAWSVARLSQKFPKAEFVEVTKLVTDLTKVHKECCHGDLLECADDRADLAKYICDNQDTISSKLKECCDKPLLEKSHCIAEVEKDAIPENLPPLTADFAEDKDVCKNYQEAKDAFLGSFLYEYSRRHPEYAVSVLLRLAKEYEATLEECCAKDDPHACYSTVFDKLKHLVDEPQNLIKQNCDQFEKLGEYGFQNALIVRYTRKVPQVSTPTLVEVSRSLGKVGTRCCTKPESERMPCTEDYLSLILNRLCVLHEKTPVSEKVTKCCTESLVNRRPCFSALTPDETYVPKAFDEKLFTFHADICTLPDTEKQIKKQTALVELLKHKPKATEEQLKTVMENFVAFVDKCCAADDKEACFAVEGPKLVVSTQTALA
UniProt P98170, 241-356 limits assumed: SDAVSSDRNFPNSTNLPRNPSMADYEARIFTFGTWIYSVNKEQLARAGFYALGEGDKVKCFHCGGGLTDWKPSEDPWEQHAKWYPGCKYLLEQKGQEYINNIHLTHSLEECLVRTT

Tests used:
TNFα [1] = biological target: T1, TNFα (Homo sapiens, UniProt P01375); test: Fluorescence anisotropy (FA) binding to TNFα; settings: read-out: KD for TNFα; resynthesized, FITC-labeled, HPLC-purified peptide
T1 construct: extracellular domain of human TNFα (aa 77-233); ybbR tag ([…]; made in house; host or cells: E. coli BL21(DE3)

[2] = biological target: T2, glutathione-S-transferase-PLC7 SH2 domain fusion (GST-SH2) (Homo sapiens, UniProt P16885); test: FA binding to control protein GST-SH2; settings: FITC-labeled peptide
T2 construct: GST fusion with the N—SH2 domain of SH2 of PLCγ
T2 sequence (P16885 532-635): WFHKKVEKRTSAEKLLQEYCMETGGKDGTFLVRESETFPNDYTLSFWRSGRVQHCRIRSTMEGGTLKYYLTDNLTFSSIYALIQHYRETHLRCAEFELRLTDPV

[3] = biological target: T3, protein-tyrosine phosphatase 1B (PTP1B) (Homo sapiens, UniProt P18031); test: FA binding to control protein PTP1B; settings: FITC-labeled peptide
T3 sequence (P18031 1-435): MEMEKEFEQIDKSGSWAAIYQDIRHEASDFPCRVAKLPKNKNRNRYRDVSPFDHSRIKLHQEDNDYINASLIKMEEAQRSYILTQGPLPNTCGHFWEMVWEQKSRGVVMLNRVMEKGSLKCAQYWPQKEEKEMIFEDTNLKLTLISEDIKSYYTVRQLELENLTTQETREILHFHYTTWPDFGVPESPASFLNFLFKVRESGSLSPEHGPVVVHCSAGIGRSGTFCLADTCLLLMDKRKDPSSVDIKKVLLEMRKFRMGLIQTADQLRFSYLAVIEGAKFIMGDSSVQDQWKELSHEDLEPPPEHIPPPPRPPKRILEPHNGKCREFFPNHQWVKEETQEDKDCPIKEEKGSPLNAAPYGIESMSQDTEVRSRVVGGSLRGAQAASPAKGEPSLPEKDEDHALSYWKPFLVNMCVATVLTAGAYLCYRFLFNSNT

TNFα [4] = biological target: T1, TNFα; test: FA competition between Necrostatin C1 and C2 for binding to TNFα; settings: TNFα 1600 nM, probe 100 nM, 1 h 37° C.
[5] = biological target: bovine serum albumin (BSA) (Bos taurus, UniProt P02769); test: FA binding to control protein BSA; settings: read-out: KD for BSA; FITC-labeled peptide
K-Ras [6] = biological target: K-Ras (Homo sapiens, UniProt P01116); test: FA binding to K-Ras (Example 2 library hits); settings: FITC-labeled, recombinant K-Ras; NA = no significant binding activity
Ras-Raf interaction = Ras-Raf interaction (Homo sapiens, UniProt P01116); test: HTRF assay of Ras-Raf interaction; type: binding; settings: read-out: IC50, inhibition of the Ras-Raf interaction
[7] = biological target: maltose-binding protein-XIAP BIR3 domain fusion (MBP-BIR3) (Homo sapiens, UniProt P98170); test: FA binding to MBP-BIR3; settings: read-out: KD for MBP-BIR3
[8] = biological target: T4, GST-SHD SH2 domain fusion protein (Homo sapiens, UniProt Q96IW2); test: FA binding to GST-SHD SH2
T4 sequence (Q96IW2 240-335 limits assumed): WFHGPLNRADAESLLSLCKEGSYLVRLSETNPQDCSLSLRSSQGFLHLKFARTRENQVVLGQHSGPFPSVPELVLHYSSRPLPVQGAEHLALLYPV

Ras-GTP = Ras-GTP (Homo sapiens, UniProt P01116); test: FA binding to K-Ras loaded with GTP; settings: read-out: KD for Ras-GTP; FITC-labeled peptide
Ras-GDP = Ras-GDP (Homo sapiens, UniProt P01116); test: FA binding to K-Ras loaded with GDP; settings: read-out: KD for Ras-GDP; FITC-labeled peptide
Ras-GPPNP = Ras-GPPNP (Homo sapiens, UniProt P01116); test: FA binding to K-Ras loaded with GPPNP; settings: read-out: KD for Ras-GPPNP; FITC-labeled peptide
K-Ras [9] = biological target: T5, K-Ras (Homo sapiens, UniProt P01116, G12V); test: FA binding to K-Ras (Example 4 DCAI-bearing bicyclic peptides); settings: read-out: KD for K-Ras; FAM- or FITC-labeled peptide; NB = no binding
T5 construct: GST; made in house

“bicyclo(Ala-D-Phe-Trp-D-Thr-Gln-Lys-Nle-D-Leu-Ala-His-Dap) [Necrostatin C2]” showed a Kd (TNFα [1]) of 1.9 µM, a Kd ([2]; read-out: KD for GST-SH2) of 3 to 37 µM and a Kd ([3]; read-out: KD / binding to PTP1B) of 3 to 37 µM. It also gave an IC50 (TNFα [4]; read-out: IC50, inhibition of binding of FITC-labeled Necrostatin C1 to TNFα) of ~4 µM, an IC50 (TNFα [4]; read-out: IC50, inhibition of binding of FITC-labeled Necrostatin C2 to TNFα) of ~2 µM and a Kd [5] of 3 to 37 µM.
For “bicyclo(Phg-Tyr-D-Ala-Lys-Tyr-D-Phe-Gly-D-Lys-His-Dap) [Necrostatin C1]”, the “KD for GST-SH2” value [2] was “not to any of the other proteins” and the “KD / binding to PTP1B” value [3] was “not to any of the other proteins”.
For “bicyclo(Ala-Orn-Phg-Arg-d-Asn-Pra-Ile-d-Phe-K-FNalR4-Dap)-K [Peptide 13]”, the “KD of resynthesized peptide for K-Ras” value (K-Ras [6]) was “no significant binding; also recorded: did not show significant binding”.
With “nal-Ser-Gln-nal-Phg-Lys-phe-Arg-val-Arg-Dap [Hit 82]” the “KD / binding to PTP1B” value [3] was “very weakly”, the IC50 (Ras-Raf interaction) was ~1.4 µM and the Kd [7] was 16 µM. The “KD / binding to GST-SHD SH2” value [8] was “very weakly”, the Kd [5] was 17 µM and the Kd (Ras-GTP) was 1.2 µM. The Kd (Ras-GDP) was 9.3 µM and the Kd (Ras-GPPNP) was 1.6 µM.
For “bicyclo(Ala-d-Leu-Phe-Arg-d-Asn-Pra-Ile-Asp-K-FNalR4-Dap)-K [Peptide 41]”, the Kd (K-Ras [9]) was 0.3 µM.
